{
  "source": "paper PMC5458626",
  "about": "(American heart journal, 2017)",
  "key": {"[1]": {"assay": "Plasma pharmacokinetics of udenafil and DA-8164", "conditions": "for DA-8164 Cmax: plasma metabolite"}, "[2]": {"assay": "Vascular function by peripheral arterial tonometry", "type": "in vivo, human", "conditions": "N=5"}, "Adverse events": {"assay": "Adverse events", "type": "in vivo, human", "conditions": "5 days, N=6"}, "[3]": {"conditions": "metabolite, oral udenafil 87.5 mg bid for five days, mean (%CV), N=6"}, "[4]": {"conditions": "metabolite, oral udenafil 87.5 mg daily for five days, mean (%CV), N=6"}, "[5]": {"conditions": "oral udenafil 87.5 mg bid for five days, mean (%CV), N=6"}, "[6]": {"conditions": "oral udenafil 87.5 mg daily for five days, mean (%CV), N=6"}, "[7]": {"conditions": "twice-daily dosing, dose increased 2.3 times (37.5 to 87.5 mg)"}},
  "data": [
    {"smiles": "CCCOc1ccc(S(N)(=O)=O)cc1-c1nc2c(CCC)nn(C)c2c(=O)[nH]1", "note": "[DA-8164]", "values": [
      {"measurement": "DA-8164 T½ (harmonic mean half-life, 0.693/mean kel)", "setting": "[1]; metabolite, oral udenafil 87.5 mg bid for five days, N=6", "result": 12.3, "unit": "h"},
      {"measurement": "DA-8164 Cavg (AUC0−τ/τ)", "setting": "[1]; [3]", "result": "201 (24) ng/mL"},
      {"measurement": "DA-8164 Tmax", "setting": "[1]; [3]", "result": "2.6 (36) h"},
      {"measurement": "DA-8164 kel", "setting": "[1]; [3]", "result": "0.0564 (17) h"},
      {"measurement": "DA-8164 AUC0−τ", "setting": "[1]; metabolite, oral udenafil 87.5 mg bid for five days, τ = 12 hours, mean (%CV), N=6", "result": "2410 (24) ng*h/mL"},
      {"measurement": "DA-8164 T½ (harmonic mean half-life, 0.693/mean kel)", "setting": "[1]; metabolite, oral udenafil 87.5 mg daily for five days, N=6", "result": 14.9, "unit": "h"},
      {"measurement": "DA-8164 Cavg (AUC0−τ/τ)", "setting": "[1]; [4]", "result": "121 (65) ng/mL"},
      {"measurement": "DA-8164 Tmax", "setting": "[1]; [4]", "result": "3.2 (30) h"},
      {"measurement": "DA-8164 kel", "setting": "[1]; [4]", "result": "0.0464 (16) h"},
      {"measurement": "DA-8164 Cmax", "setting": "[1]; [5]", "result": "293 (34) ng/mL"},
      {"measurement": "DA-8164 Cmax", "setting": "[1]; [6]", "result": "227 (66) ng/mL"}
    ]},
    {"smiles": "CCCOc1ccc(S(=O)(=O)NCCC2CCCN2C)cc1-c1nc2c(CCC)nn(C)c2c(=O)[nH]1", "note": "(stereo not drawn) [udenafil]", "values": [
      {"measurement": "Cmax", "setting": "[1]; human, plasma, po, 87.5 mg, Udenafil Cmax, oral udenafil 87.5 mg bid for five days, mean (%CV), N=6", "result": 506, "unit": "ng/mL"},
      {"measurement": "Udenafil CL/F (oral clearance)", "setting": "[1]; [5]", "result": "27.2 (20) L/h"},
      {"measurement": "Udenafil Cavg (AUC0−τ/τ)", "setting": "[1]; [5]", "result": 279, "unit": "ng/mL"},
      {"measurement": "Udenafil CL/F (oral clearance)", "setting": "[1]; [6]", "result": "41.1 (19) L/h"},
      {"measurement": "Fold increase of mean udenafil AUC0−τ with dose", "setting": "[1]; [7]", "result": 3.2, "unit": "fold"},
      {"measurement": "Fold increase of mean udenafil Cmax with dose", "setting": "[1]; [7]", "result": 3.3, "unit": "fold"},
      {"measurement": "Augmentation Index adjusted to HR 75, follow-up measurement", "setting": "[2]; day 5, udenafil 87.5 mg BID", "result": "−4.49±12.02"},
      {"measurement": "Natural log of Reactive Hyperemic Index, follow-up measurement", "setting": "[2]; day 5, udenafil 87.5 mg BID", "result": "0.40±0.29"},
      {"measurement": "Augmentation Index adjusted to HR 75, follow-up measurement", "setting": "[2]; day 5, udenafil 87.5 mg QD", "result": "−12.71±9.11"},
      {"measurement": "Natural log of Reactive Hyperemic Index, difference FU – BL", "setting": "[2]; day 5 minus baseline (positive = improvement), udenafil 87.5 mg QD", "result": "0.07±0.22"},
      {"measurement": "Subjects who experienced drug-related (probably or possibly) adverse events: Headache", "setting": "Adverse events; udenafil 87.5 mg daily", "result": "4 (67) n (%)"},
      {"measurement": "Subjects who experienced drug-related adverse events: Abdominal discomfort", "setting": "Adverse events; udenafil 87.5 mg daily", "result": "0 (0) n (%)"},
      {"measurement": "Subjects who experienced drug-related adverse events: Back pain", "setting": "Adverse events; udenafil 87.5 mg daily", "result": "0 (0) n (%)"},
      {"measurement": "Subjects who experienced drug-related adverse events: Flushing", "setting": "Adverse events; udenafil 87.5 mg daily", "result": "4 (67) n (%)"},
      {"measurement": "Subjects who experienced drug-related adverse events: Nasal congestion", "setting": "Adverse events; udenafil 87.5 mg daily", "result": "1 (17) n (%)"},
      {"measurement": "Subjects who experienced drug-related adverse events: Nausea", "setting": "Adverse events; udenafil 87.5 mg daily", "result": "0 (0) n (%)"},
      {"measurement": "Subjects who experienced drug-related (probably or possibly) adverse events: Headache", "setting": "Adverse events; udenafil 87.5 mg twice daily", "result": "4 (67) n (%)"},
      {"measurement": "Subjects who experienced drug-related adverse events: Abdominal discomfort", "setting": "Adverse events; udenafil 87.5 mg twice daily", "result": "1 (17) n (%)"},
      {"measurement": "Subjects who experienced drug-related adverse events: Back pain", "setting": "Adverse events; udenafil 87.5 mg twice daily", "result": "1 (17) n (%)"},
      {"measurement": "Subjects who experienced drug-related adverse events: Flushing", "setting": "Adverse events; udenafil 87.5 mg twice daily", "result": "2 (33) n (%)"},
      {"measurement": "Subjects who experienced drug-related adverse events: Nasal congestion", "setting": "Adverse events; udenafil 87.5 mg twice daily", "result": "1 (17) n (%)"},
      {"measurement": "Subjects who experienced drug-related adverse events: Nausea", "setting": "Adverse events; udenafil 87.5 mg twice daily", "result": "1 (17) n (%)"}
    ]}
  ]
}
